The values below are quoted from earlier work in publication PMC6470885 (Molecules, 2019).

The conditions of this series: cited from earlier work.

Turning to human serum albumin, the in vivo half-life is 15 to 19 days.
